FN deposit inh – fibronectin deposition inhibition; AH1F fibroblasts, Alexa488-fibronectin deposition fluorescence, overnight; AID 743247; inhibition, % at 12.6 µM; 350,000 tested, 0.086% active;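 active = mean inhibition across replicates of 30% or more, regardless of how many single replicates reach that level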;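 note: positive control wells lacked labelled fibronectin entirely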
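test system = AH1F fibroblasts assembling fluorescent fibronectin matrix | quantity = 10000 AH1F cells per well | buffer or medium = DMEM plus 2% serum, read in PBS | doses = single dose, pinned | incubation = 1 h cell attachment, overnight exposure to compound and label | detection = fluorescence at 485 nm excitation, 525 nm emission | read-out basis = inhibition from reduced deposited-fibronectin fluorescence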
Yeast UUG start – modulators of yeast start codon fidelity, primary screen, whole organism, S. cerevisiae, single point, plate reader | AID 602363, 2012 | S. cerevisiae UUG-firefly luciferase reporter, luminescence/redox ratio | activity score, % at 18.7 µM | hit rate 0.13% among 350,000;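 active = replicate mean at a twofold rise or more, about +100% in these data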;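 also: firefly luciferase made from a UUG start codon reports start codon fidelity; reporter light over untreated wells divided by growth signal over untreated wells; some hits fall short of that in this replicate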
PGC1a acetyl inh – lowers PGC1a acetylation signal in U2OS cells; AlphaScreen anti-acetyl-lysine; with virally co-expressed GCN5 acetyltransferase; inhibition, % at 15.6 µM; 350,000 tested, 0.17% active; AID 651687;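 active = every replicate shows inhibition of at least 40%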;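 note: 0% = neutral control wells and 100% = positive control wells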
hiPSC survival – increases survival of single human iPS cells | hiPSC single-cell survival, ATPlite luminescence; 100% = ROCK inhibitor wells, 0% = DMSO | survival enhancement, % at 20 µM | 360,000 tested, 0.044% active | AID 602274; in the data active = survival enhancement above about 18%;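 note: cells exposed to compounds for 16 hours before the ATP read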
C2C12 statin – protects C2C12 myotubes from simvastatin toxicity; ATP luminescence, 48 h; scaled: DMSO 0, geranylgeraniol control 100; rescue of ATP level, % at 7.49 µM; 330,000 tested, 0.78% active;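 active = mean ATP rescue above about 67%, or every replicate alone reaching that limit, limit read from the data, passing the limit was not always enough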;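 note: myotubes were challenged with 10 µM simvastatin during compound exposure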
The depositor's hits bear a star; nt = no result. Most compounds without a hit are left out; they make up all but 0.91% or so of the library.

The first 3 compounds (preview)
SMILES	FN deposit inh	Yeast UUG start	PGC1a acetyl inh	hiPSC survival	C2C12 statin
CC(C)NC(=O)N(C)C[C@H]1Oc2ccc(NC(=O)CCN3CCOCC3)cc2C(=O)N([C@H](C)CO)C[C@@H]1C	39*	-10	9	0	0
CC1CCN(c2nc3nonc3nc2N2CCC(C)CC2)CC1	nt	nt	-8	-2	10
C1CCN(c2nc3nonc3nc2N2CCCC2)C1	5	-19	0	22*	12

This part in full (from the top)
SMILES	FN deposit inh	Yeast UUG start	PGC1a acetyl inh	hiPSC survival	C2C12 statin
CC(C)NC(=O)N(C)C[C@H]1Oc2ccc(NC(=O)CCN3CCOCC3)cc2C(=O)N([C@H](C)CO)C[C@@H]1C	39*	-10	9	0	0
CC1CCN(c2nc3nonc3nc2N2CCC(C)CC2)CC1	nt	nt	-8	-2	10
C1CCN(c2nc3nonc3nc2N2CCCC2)C1	5	-19	0	22*	12
CCCNC(=O)C[C@@H]1CC[C@H]2[C@@H](COc3ccc(NC(=O)C4CCOCC4)cc3C(=O)N2C)O1	-15	-12	2	nt	2
CCOC(=O)N1CCN(S(=O)(=O)c2cc(Br)cc3c2N(C(C)=O)C(C)C3)CC1 (stereo unspecified)	-10	1	10	0	19
CCOC(=O)C1CCN(S(=O)(=O)c2cc(Br)cc3c2N(C(C)=O)C(C)C3)CC1 (stereo unspecified)	2	-6	-4	-2	88*
Cc1ccc(S(=O)(=O)Nc2cccc3c2O[C@@H](CN(C)Cc2ccc(Oc4ccccc4)cc2)[C@H](C)CN([C@H](C)CO)C3=O)cc1	nt	-15	12	nt	-7
COc1ccc(NC(=O)N(C)C[C@@H]2Oc3c(NC(=O)C4CCCCC4)cccc3C(=O)N([C@H](C)CO)C[C@@H]2C)cc1	nt	4	4	nt	16
Cc1cc2c(N=O)c(NO)ccc2[nH]1	nt	-13	-74	-2	80*
C[C@H](CO)N1C[C@H](C)[C@H](CN(C)C(=O)c2ccc(F)cc2)OCc2ccccc2-c2ccccc2C1=O	-2	nt	16	nt	-3
CCC(=O)N[C@@H]1CC[C@@H](CCNS(=O)(=O)c2ccc(Cl)cc2)O[C@H]1CO	nt	9	0	nt	5
Cc1cccc2c(-c3ccccc3)cc(=O)[nH]c12	-4	-12	3	2	84*
O=c1cc(-c2ccccc2)c2ccccc2[nH]1	1	-14	-2	6	-10
COc1ccc(S(=O)(=O)N(CC(C)C)CC(C)C)c2cccnc12	-4	-11	-8	0	154*
CCCCN(CCCC)S(=O)(=O)c1ccc(OC)c2ncccc12	nt	-6	-26	-3	66*
CCN(Cc1ccccc1)S(=O)(=O)c1ccc(OC)c2ncccc12	-8	-2	-1	0	nt
C[C@@H]1CN([C@@H](C)CO)C(=O)c2cc(-c3ccc(C#N)cc3)cnc2O[C@@H]1CN(C)C(=O)CC1CC1	nt	4	-9	nt	2
C[C@@H]1CCCCO[C@H](CN(C)CC2CCCCC2)[C@@H](C)CN([C@H](C)CO)C(=O)c2cc(NC(=O)Cc3ccccc3)ccc2O1	nt	-7	8	nt	nt
c1ccc2c(c1)CCN(Cc1nnnn1Cc1ccc3c(c1)OCO3)C2	nt	-3	0	1	125*
Cc1ccc([C@@H]2C[C@H]3[C@@H](CN2S(=O)(=O)c2ccc(Cl)cc2)C(=O)C[C@@H](c2ccc(C)cc2)N3S(=O)(=O)c2ccc(Cl)cc2)cc1	1	-1	3	28*	7
CCC(=O)N1C[C@H](C)[C@H](OC)CN(C)C(=O)c2cc(NC(=O)CC(F)(F)F)ccc2OC[C@@H]1C	2	nt	9	nt	nt
N/C(=N\OC(=O)CCCOc1ccccc1)c1ccc([N+](=O)[O-])cc1	-15	nt	90*	-1	nt
OC(CSc1ccccc1Cl)CN1CCN(c2ccccc2F)CC1 (stereo unspecified)	0	10	-17	0	4
OC(CSc1c(Cl)cccc1Cl)CN1CCN(c2ccccc2F)CC1 (stereo unspecified)	2	-13	1	4	172*
CN(C)CC(=O)Nc1ccc2c(c1)[C@@H]1C[C@@H](CC(=O)NCc3ccccc3F)O[C@@H](CO)[C@@H]1O2	-13	0	0	nt	-9
O=C(CN1CCC(C(O)(c2ccccc2)c2ccccc2)CC1)Nc1cc(Cl)ccc1Cl	nt	-8	-2	-1	90*
O=C(CN1CCN(C(=O)c2ccco2)CC1)Nc1cc(C(F)(F)F)ccc1Cl	nt	-12	3	5	104*
C[C@@H]1CN([C@H](C)CO)C(=O)c2c(c3ccccc3n2C)-c2ccccc2CO[C@@H]1CN(C)C(=O)[C@H]1CCCN1C	3	nt	2	nt	-3
CCOC(=O)c1sc(NC(=O)CN(CC(C)C)CC(C)C)c(C(=O)OCC)c1C	-5	5	-6	-2	74*
O=C1CC(c2cccs2)c2cc3c(cc2N1)OCO3 (stereo unspecified)	-5	-14	5	1	116*
O=C1CC(c2ccc3c(c2)OCO3)c2cc3c(cc2N1)OCCO3 (stereo unspecified)	nt	-3	-23	-4	30
O=C1CC(c2ccncc2)c2cc3c(cc2N1)OCCO3 (stereo unspecified)	nt	-8	5	-2	126*
OCCN(Cc1ccccc1)CC1CCCCC1	nt	-25	57*	-3	-3
OCCN(Cc1ccccc1)CC1CC2C=CC1C2 (stereo unspecified)	3	-20	-1	1	3
CCCNC(=O)[C@@H]1[C@@H](CO)[C@@H]2Cn3c(ccc(/C=C/c4ccccc4)c3=O)[C@@H]2N1CCC	nt	17	nt	nt	27
CO[C@@H]1CN(C)C(=O)c2cc(NC(C)=O)ccc2OC[C@@H](C)N(CCc2ccccc2)C[C@H]1C	-11	9	3	nt	0
Cc1ccnc(NC(=O)CCC(=O)N(CC(=O)NCc2ccc(F)cc2)CC2CCCO2)c1 (stereo unspecified)	3	-6	nt	0	-9
Cc1ccnc(NC(=O)CCC(=O)N(CC(=O)NCC2CCCO2)Cc2ccc(F)cc2)c1 (stereo unspecified)	nt	-7	-1	0	91*
COCCNC(=O)C(c1ccc(C)o1)N(CC1CCCO1)C(=O)Cn1nnc2ccccc21 (stereo unspecified)	3	0	9	0	12
O=C(NCc1ccco1)C(c1ccc(F)cc1)N(CC1CCCO1)C(=O)Cn1nnc2ccccc21 (stereo unspecified)	nt	-15	4	-4	89*

Another view of part of the listing above.
structure | FN deposit inh | Yeast UUG start | PGC1a acetyl inh | hiPSC survival | C2C12 statin
OCCN(Cc1ccccc1)CC1CCCCC1 | nt | -25 | 57* | -3 | -3
OCCN(Cc1ccccc1)CC1CC2C=CC1C2 (stereo unspecified) | 3 | -20 | -1 | 1 | 3

Additional results
SMILES	FN deposit inh	Yeast UUG start	PGC1a acetyl inh	hiPSC survival	C2C12 statin
CC(C)NC(=O)Nc1ccc2c(c1)CC(=O)N(C)C[C@@H](C)[C@H](CN(C)S(C)(=O)=O)O2	-13	nt	nt	nt	nt
CCOc1cc(NC(=O)C2CC2)c(OCC)cc1NC(=O)c1ccccn1	nt	-3	-9	3	121*
C/C(=N\NC(N)=S)c1cc(-c2ccccc2)c(-c2ccccc2)s1	-28	-15	nt	0	108*
C/C(=N\NC(N)=S)c1ccccc1	3	-38	6	0	nt
CC1(C(=O)Nc2ccccc2F)CCN1C(=O)Cc1ccc(-c2ccccc2)cc1 (stereo unspecified)	-11	-14	3	-1	-9
C=C1C(=O)C23CCC4C(C)(C(=O)OC)CCCC4(C)C2CCC1(O)C3 (stereo unspecified)	37*	nt	76*	-5	nt
